In patent publication US6500431B1, “Inhibitors of angiogenesis and tumor growth” (University of Southern California, priority 1998, dated 2002):

Legend:
T1 cells = test: Fibroblast proliferation assay (MTT); type: cell-based; settings: concentration not given, 5 days
Description: To determine if Saposin B polypeptides had anti-angiogenic activity, a series of overlapping polypeptides were synthesized and tested in the KS Y-1 cell proliferation assay. The overlapping polypeptides are SEQ ID NOS:13 though 42. Cell Proliferation assays in either KS cells or fibroblast. Cells were plated in 48 well plates at equal numbers in appropriate culture medium. Cells were treated with the test compounds at various concentrations on day one, and on day 3. […] KS cells were used to represent the activated endothelial cells, while fibroblast cells represent the control cells. The results are remarkable for the lack of toxicity to the fibroblast relative to the activated endothelial cells/KS cells.

KS Y-1 tumors = test: Pentapeptide on growth of KS Y-1 tumors in mice; type: in vivo; settings: 50 mg/kg subcutaneously daily from the day after implantation
Description: FIG. 6: Effect of pentapeptide DVCQD (SEQ ID NO:28) on the growth of estiblished KS Y-1 tumors in mice. Mice were implanted with the tumor on day one. Treatment with the peptide was started on the following day at a dose of 50 mg/kg subcutaneously daily.

KS Y-1 cells = test: KS Y-1 cell proliferation assay (MTT); type: cell-based; settings: for Cell Proliferation Activity (% of control), KSY-1: concentration not printed, 5 days, MTT
Description: To determine if Saposin B polypeptides had anti-angiogenic activity, a series of overlapping polypeptides were synthesized and tested in the KS Y-1 cell proliferation assay. The overlapping polypeptides are SEQ ID NOS:13 though 42. Cell Proliferation assays in either KS cells or fibroblast. Cells were plated in 48 well plates at equal numbers in appropriate culture medium. Cells were treated with the test compounds at various concentrations on day one, and on day 3. MTT was done on day 5. KS cells were used to represent the activated endothelial cells, while fibroblast cells represent the control cells. The results are remarkable for the lack of toxicity to the fibroblast relative to the activated endothelial cells/KS cells.

[1] = tested on: endothelial cells (HUVEC); test: Growth inhibition of endothelial cells; type: cell-based; settings: FIG. 1, 1D, 1E
Description: FIG. 1D: Activity of n-terminus decapeptide (DVCQDCIQMV; SEQ ID NO 21).
FIG. 1E: Activity of N-terminus pentapeptide (DVCQC; SEQ ID NO: 28).
By SDS-PAGE, the bacterial product was smaller than the eukaryotic protein. Because prokaryotically expressed proteins are not glycosylated, the difference in molecular weights probably represents the presence of carbohydrate in the eukaryotic protein. Recombinant proteins were then tested in KS, endothelial and control cell lines. Activity was found only in KS cell lines and endothelial cells.

SMILES	Cell Proliferation Activity (% of control), T1 (T1 cells)	Cell Proliferation Activity (% of control), T1 (T1 cells; first of two T1 value columns)	tumor volume / activity in vivo (KS Y-1 tumors)	IC50 (KS Y-1 cells)	Cell Proliferation Activity (% of control), KSY-1 (KS Y-1 cells; first of two KSY-1 value columns)	Cell Proliferation Activity (% of control), KSY-1 (KS Y-1 cells; second of two KSY-1 value columns)	growth inhibition of endothelial cells [1]
CC(C)[C@H](NC(=O)[C@@H](N)CC(=O)O)C(=O)N[C@@H](CS)C(=O)N[C@@H](CCC(N)=O)C(=O)N[C@@H](CC(=O)O)C(=O)O [SEQ ID NO:28, DVCQD]	87 % of control	91 % of control	active in vivo; also recorded: significantly smaller	11.8 µM	30 % of control	10 % of control	Only endothelial cells show dose dependent growth inhibition
CC(C)[C@H](NC(=O)[C@@H](N)CC(=O)O)C(=O)N[C@@H](CS)C(=O)N[C@@H](CC(=O)O)C(=O)N[C@@H](CC(=O)O)C(=O)O [SEQ ID NO:40, DVCDD]	–	–	–	12.2 µM	–	–	–

Entries after “also recorded” stand apart in the source; their conditions may differ.
